Most compounds without a hit are left out; they make up all but 16% or so of the library.
TDP1 cell CPT: growth inhibition of DT40 Tdp1-/-;hTDP1 cells with camptothecin (screen for TDP1 inhibitors); 420,000 compounds, 12% hits; chicken DT40 Tdp1-/-;hTDP1 cells + 20 nM CPT, ATP luminescence, 48 h; Potency, µM (top dose mostly 46.2 µM), actives largely listed as inhibitors; note: nearly all actives have a fitted effect of over 55% in size
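Chicken DT40 Tdp1-/- cells stably complemented with human TDP1 were seeded at 400 cells/well in medium containing 20 nM camptothecin, exposed to pin-transferred compounds, and grown at 37 °C for at least 48 hr. Viability was read as ATP luminescence.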
miR-21 reporter: raises the signal of a miR-21 reporter | HeLa miR-21 FLuc reporter, luciferase, 48 h | Potency, µM (doses to about 38.3 µM) | 340,000 tested, under 10 active | AID 2288; active = well fitted rising curve with a large enough effect; inconclusive = small, poorly fitted or top-dose-only effect; inactive = no such curve, though single readings can be large or run the other way;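 also: miR-21 action dims this reporter so a rising signal means less miR-21 action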
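HeLa cells endogenously expressing miR-21, stably carrying CMV-driven firefly luciferase with a downstream miR-21 binding site, 2000 cells/well. Titrations up to approximately 40 uM, 48 hours; luciferase luminescence read.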
TDP1 inh: inhibitors of human tyrosyl-DNA phosphodiesterase TDP1. Q9NUW8. recombinant TDP1, AlphaScreen DNA substrate cleavage. Potency, µM (doses to about 130 µM), hits mostly inhibitors. 350,000 compounds, 0.28% hits. AID 485290; note: nearly all actives have a fitted effect of over 40% in size
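Enzyme-compound mixtures sat 15 min at room temperature, followed by a 5 min reaction with 15 nM final substrate and 10 min with AlphaScreen beads. Recombinant human Tdp1 was used at 1 nM final.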
uPA generation: cell surface uPA generation inhibition. cell surface uPA generation assay, qHTS. Potency, µM (doses to about 38.3 µM), actives largely listed as inhibitors. 330,000 compounds, 0.31% hits. AID 540303; active = well fitted inhibition curve with a large enough effect; inconclusive = small, poorly fitted or top-dose-only effect; inactive = no such curve, though single readings can be large or run the other way; tested in mouse RAW 264.7 cells; note: nearly all actives have a fitted effect of over 55% in size
DT40 TDP1 no CPT: qHTS for Inhibitors of human tyrosyl-DNA phosphodiesterase 1 (TDP1): qHTS in cells in absence of CPT | 420,000 compounds, 15% hits | DT40 Tdp1-/- hTDP1 cells, no CPT, ATP luminescence, 48 h | Potency, µM (titrated, usually from 46.2 µM), usual class: inhibitors; note: nearly all actives have a fitted effect of over 55% in size
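Stably hTDP1-transfected Tdp1-null chicken DT40 cells were treated with library compounds minus camptothecin and grown for at least 48 hr at 37 °C, after which cellular ATP was quantified by luminescence.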
Each line names hits and unclear results; the compound was inactive in the other large screens; ! = a repeat was not active. Unless noted, calls come from the whole dose curve; as a rule, active = well fitted curve in the direction sought with a large enough effect; inconclusive = small, poorly fitted or top-dose-only effect, or another doubt; inactive = no such curve, though single readings can be large; an effect the other way counts as inactive or inconclusive.

CCOc1ccc(N2C(=O)c3ccc(C(=O)OCC(=O)N(CC)C4CCS(=O)(=O)C4)cc3C2=O)cc1 (stereo not drawn)	none
CCOC(=O)c1c(NC(=O)COC(=O)CCOc2cc(C)ccc2C)sc(C(=O)N(C)C)c1C	none (no result: miR-21 reporter, TDP1 inh)
N#C/C(=C\c1ccc(OCCN2CCOCC2)cc1)C(=O)Nc1ccccc1F	none
CN(C)CCc1cc2c(c3c1ccc1ccccc13)OCO2	TDP1 cell CPT 21µM!, uPA generation inconclusive, DT40 TDP1 no CPT 21µM!
Cc1ccc(OCC(=O)NNC(=O)C2CCC2)cc1C	uPA generation inconclusive (no result: miR-21 reporter)
CC1CCCCN1C(=O)CNCC1CCCO1 (stereo not drawn)	none
COc1ccccc1CNC(=O)CCCN1C(=O)CCn2nc(-c3cn(C)c4ccccc34)cc21	TDP1 cell CPT inconclusive, DT40 TDP1 no CPT inconclusive (no result: uPA generation)
CCOc1ccc(S(=O)(=O)NCCc2csc3nc(-c4ccc(OC)c(OC)c4)nn23)cc1	TDP1 cell CPT inconclusive, DT40 TDP1 no CPT inconclusive (no result: uPA generation)
CC(=O)Nc1ccc(S(=O)(=O)NCCc2csc3nc(-c4ccc(Cl)cc4)nn23)cc1	TDP1 cell CPT 21µM, DT40 TDP1 no CPT 16µM (no result: uPA generation)
CC(=O)Nc1ccc(S(=O)(=O)NCCc2csc(C)n2)cc1	none
COc1ccc(C)cc1NC(=O)C(=O)NCCc1csc2nc(-c3ccccc3F)nn12	none (no result: uPA generation)
COc1ccc(S(=O)(=O)NCCc2csc3nc(-c4ccc(Cl)cc4)nn23)cc1C	TDP1 cell CPT 16µM, DT40 TDP1 no CPT 13µM (no result: uPA generation)
COc1ccc(S(=O)(=O)NCCc2csc3nc(-c4ccc(OC)c(OC)c4)nn23)cc1C	TDP1 cell CPT inconclusive, DT40 TDP1 no CPT 16µM (no result: uPA generation)
COc1ccc(-c2nc3scc(CCNS(=O)(=O)c4ccc(F)cc4F)n3n2)cc1OC	TDP1 cell CPT inconclusive, DT40 TDP1 no CPT 18µM (no result: uPA generation)
Cc1ccc(CN2CCN(Cc3nc4c(s3)CCCC4)CC2CCO)cc1 (stereo not drawn)	miR-21 reporter inconclusive, DT40 TDP1 no CPT inconclusive
CCn1ncc(S(=O)(=O)Nc2cccnc2)c1C	none
O=C(CCN1C(=O)c2ccccc2C1=O)Nc1ccccn1	DT40 TDP1 no CPT inconclusive
COc1ccc(S(=O)(=O)NCCc2csc3nc(-c4cccc(C)c4)nn23)cc1F	TDP1 cell CPT inconclusive, DT40 TDP1 no CPT 21µM (no result: uPA generation)
COc1ccc(-c2nc3scc(CCNS(=O)(=O)c4c(C)cc(C)cc4C)n3n2)cc1OC	TDP1 cell CPT 15µM, DT40 TDP1 no CPT 23µM (no result: uPA generation)
CCS(=O)(=O)c1ccc(C(=O)Nc2cccc(Cl)c2)c(Cl)c1Cl	TDP1 cell CPT inconclusive, DT40 TDP1 no CPT 21µM
CS(=O)(=O)Nc1ccccc1C(=O)Nc1ccccc1Cl	none
CS(=O)(=O)Nc1ccccc1C(=O)Nc1cc(Cl)cc(Cl)c1	TDP1 cell CPT 18µM, DT40 TDP1 no CPT 18µM (no result: uPA generation)
CCS(=O)(=O)c1ccc(C(=O)Nc2ccccc2)c(Cl)c1Cl	TDP1 cell CPT inconclusive, DT40 TDP1 no CPT inconclusive
CS(=O)(=O)Nc1ccccc1C(=O)Nc1cccc(Cl)c1	TDP1 cell CPT inconclusive, DT40 TDP1 no CPT 23µM
CC(=O)Nc1cccc(Oc2cnc3ccccc3n2)c1	none
O=[N+]([O-])c1ccc(/C=N/Nc2ncc(Br)cn2)cc1	TDP1 inh 50µM
O=[N+]([O-])c1ccc(/C=N/Nc2nc(N3CCCCC3)nc(N3CCCCC3)n2)cc1	TDP1 cell CPT inconclusive, DT40 TDP1 no CPT 16µM
O=[N+]([O-])c1ccc(/C=N/Nc2nc(N3CCCCCC3)nc(N3CCCCCC3)n2)o1	TDP1 cell CPT 26µM, DT40 TDP1 no CPT inconclusive
O=[N+]([O-])c1ccc(/C=N/Nc2ncc(-c3ccccc3)cn2)cc1	none
C(=C\c1ccccc1)/C=N/Nc1nc(N2CCCCC2)nc(N2CCCCC2)n1	TDP1 cell CPT 12µM, DT40 TDP1 no CPT 12µM
CCOC(=O)[C@@H]1[C@H]2COc3cc(OC)ccc3[C@@H]2N2C(=O)N(c3cccc(F)c3)C(=O)[C@@]12C	TDP1 cell CPT inconclusive, DT40 TDP1 no CPT inconclusive (no result: TDP1 inh)
CCOc1ccc(C(C)=O)cc1NC(=O)/C=C\C(=O)O	none (no result: TDP1 inh)
S=c1sscc1-c1ccccc1	none (no result: miR-21 reporter, TDP1 inh)
CCOc1cc(/C=N/Nc2nc(Nc3ccccc3)nc(N3CCCCC3)n2)ccc1OCC(=O)O	none
O=[N+]([O-])c1cc2c(cc1/C=N/Nc1nc(N3CCCC3)nc(N3CCCC3)n1)OCO2	none
COc1ccc(/C=N/Nc2nc(Nc3ccccc3)nc(N3CCCCC3)n2)cc1OC	TDP1 cell CPT inconclusive, DT40 TDP1 no CPT 21µM
O=[N+]([O-])c1ccc(Nc2nc(N/N=C\c3ccc4c(c3)OCO4)nc(N3CCCCC3)n2)cc1	TDP1 cell CPT 21µM, DT40 TDP1 no CPT 16µM
O=[N+]([O-])c1ccc(-c2ccc(/C=N/Nc3nc(NCc4ccccc4)nc(N4CCOCC4)n3)o2)cc1	TDP1 cell CPT 9.2µM, DT40 TDP1 no CPT 16µM
COc1nc(N/N=C/c2ccc(-c3ccccc3[N+](=O)[O-])o2)nc(N2CCOCC2)n1	TDP1 cell CPT inconclusive, DT40 TDP1 no CPT inconclusive
CCOC(=O)c1sc(NC(=O)C2CC(=O)N(c3ccc(C)cc3)C2)nc1C (stereo not drawn)	none
CO/N=C(/C(=O)NC1C(=O)N2C(C(=O)O)=C(CSc3nc(=O)c(O)nn3C)CSC12)c1csc(N)n1 (stereo not drawn)	TDP1 inh 7.1µM, DT40 TDP1 no CPT inconclusive (no result: miR-21 reporter, uPA generation)
CO/N=C(/C(=O)N[C@H]1C(=O)N2C(C(=O)O)=C(COC(C)=O)CSC12)c1csc(N)n1 (stereo partly drawn)	TDP1 inh inconclusive (no result: miR-21 reporter, uPA generation)
CCNc1nc(NC(C)C)nc(N(C#N)CCOc2ccccc2)n1	TDP1 cell CPT 23µM, DT40 TDP1 no CPT 23µM
O=C(NC(=S)Nc1ccccc1N1CCOCC1)c1ccc(-c2ccccc2F)o1	TDP1 cell CPT 13µM, DT40 TDP1 no CPT 23µM
CC1CCN(c2ccccc2NC(=S)NC(=O)c2ccco2)CC1	TDP1 cell CPT inconclusive, DT40 TDP1 no CPT 29µM (no result: miR-21 reporter, TDP1 inh)
O=C(Nc1ccccc1N1CCOCC1)c1ccc(Br)o1	TDP1 cell CPT 21µM, DT40 TDP1 no CPT 23µM (no result: uPA generation)
CC1CCN(c2ccccc2NC(=O)c2ccc(Br)o2)CC1	TDP1 cell CPT 16µM, uPA generation inconclusive, DT40 TDP1 no CPT inconclusive
O=C(NCc1ccncc1)[C@@H]1CCCN1C(=O)[C@@H]1CCCN1C(=O)c1cccs1	none (no result: miR-21 reporter, TDP1 inh, uPA generation)
COc1ccc2c(c1)C(=O)CC2	none (no result: miR-21 reporter, TDP1 inh, uPA generation)
CN1CC=C2C(C#N)=C(N)C(C#N)(C#N)C(c3ccsc3)C2C1 (stereo not drawn)	TDP1 cell CPT inconclusive, DT40 TDP1 no CPT inconclusive
CN1CC=C2C(C#N)=C(N)C(C#N)(C#N)[C@H](c3cccc(Cl)c3)C2C1 (stereo partly drawn)	TDP1 cell CPT inconclusive, DT40 TDP1 no CPT 23µM
CN1CC=C2C(C#N)=C(N)C(C#N)(C#N)[C@H](c3cccs3)[C@H]2C1	TDP1 cell CPT inconclusive, DT40 TDP1 no CPT 15µM

From PubChem
